Values of other authors as cited in article PMC4560162, “Discovery of small molecule inhibitors of xyloglucan endotransglucosylase (XET) activity by high-throughput screening” (Phytochemistry, 2015).
pIC50: −log10 of the molar value.

Molecular target: PIM1 (an oncogene protein kinase)
Details: ref Holder et al., 2007; cited from earlier work

O=c1c(O)c(-c2ccc(O)c(O)c2)oc2cc(O)c(O)c(O)c12 [quercetagetin, 3,3′,4′,5,6,7-hexahydroxyflavone]
pIC50: 6.47
